From PubChem BioAssay (NCATS)
The entries are a selection whose mix differs from that of the whole data set. Inconclusive results are not listed. Activity calls are given as the source filed them. Calls come from the whole dose curve; as a rule, active = well fitted curve in the direction sought with a large enough effect; inconclusive = small, poorly fitted or top-dose-only effect, or another doubt; inactive = no such curve, though single readings can be large; an effect the other way counts as inactive or inconclusive.

The chains behind the UniProt entries cited, without tags or fusion partners.
UniProt P08684, whole entry: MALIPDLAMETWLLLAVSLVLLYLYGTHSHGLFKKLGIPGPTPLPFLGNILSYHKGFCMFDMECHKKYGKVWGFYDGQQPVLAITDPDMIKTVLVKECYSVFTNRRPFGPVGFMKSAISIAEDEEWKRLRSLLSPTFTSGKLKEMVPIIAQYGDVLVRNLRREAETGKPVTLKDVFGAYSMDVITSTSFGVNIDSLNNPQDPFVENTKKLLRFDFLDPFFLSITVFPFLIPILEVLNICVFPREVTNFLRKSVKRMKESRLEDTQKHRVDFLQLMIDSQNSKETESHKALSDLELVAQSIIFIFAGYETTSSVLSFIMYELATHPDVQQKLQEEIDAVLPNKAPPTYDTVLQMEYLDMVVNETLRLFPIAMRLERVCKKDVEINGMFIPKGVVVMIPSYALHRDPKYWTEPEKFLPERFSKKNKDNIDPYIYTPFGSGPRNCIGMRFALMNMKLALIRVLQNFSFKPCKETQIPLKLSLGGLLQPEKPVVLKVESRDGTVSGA

Tests used:
[1] = Cellular Toxicity (caspase-3) Renal Proximal Tubule (AID 667); conditions: renal proximal tubule cells, primary cells freshly taken from rat, solvent-only wells 0%, staurosporine 100%; at 91.7 µM (top of the series);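 note: cells exposed to compound for 16 hours at 37 °C before detection; 0% = DMSO basal and 100% = 10 µM staurosporine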
From the text: (§1) NIH Chemical Genomics Center [NCGC]
(§2) NIH Molecular Libraries Screening Centers Network [MLSCN]
(§3) National Institutes of Environmental Health Sciences [NIEHS]
(§4) National Toxicology Program [NTP]
We have developed a 1536-well cell-based assay for quantitative high throughput screening (qHTS) against a number of cell lines to determine in vitro caspase 3/7 activity of small molecules. This particular assay uses the primary kidney proximal tubule cells freshly isolated from rat.
(§5) NCGC Assay Protocol Summary:
The Caspase-Glo 3/7 assay (Promega) is a homogeneous method to measure caspase-3 and caspase-7 activities in cultured cells. The quantitation of caspase 3/7 activity is based on the cleavage of a peptide-aminoluciferin substrate. […]
Using the Caspase-Glo 3/7 assay, the amount of caspase 3/7 activity was measured in the rat kidney proximal tubule cells with complete culture medium following compound treatment for 16 hours. […] Library compounds were measured for their ability to cause the activation of caspase 3/7 in the cell line, as reflected by an increase in luminescence signal, in a concentration-dependent manner. […] AC50 values were determined from concentration-response data modeled with the standard Hill equation. […]
8. Detection; Luminescence; Viewlux plate reader […]

[2] = molecular target: Cytochrome P450 3A4 (Homo sapiens) (UniProt P08684); assay: qHTS Assay for Inhibitors and Substrates of Cytochrome P450 3A4 (AID 884); conditions: recombinant CYP3A4, Luciferin-PPXE luminescence; at 57.1 µM (top of the series); note: % is set by controls: 0 for no effect and ±100 for the full control effect; nearly all actives have a fitted effect of over 50% in size
[3] = Cell Viability - LYMP2-001 (AID 921); conditions: LYMP2-001 lymphoblastoid cell viability; at 92.2 µM (top of the series);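 note: cells exposed to compound for 24 h at 37 °C; 0% = DMSO only and full inhibition = tetraoctylammonium bromide control wells; nearly all actives have a fitted effect of over 70% in size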
How it was run: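 CellTiter-Glo luminescence (intracellular ATP) after 24 hr compound exposure at 37 C, 2500 lymphoblastoid cells/well in complete medium. AC50 fitted with standard Hill equation; tetraoctylammonium bromide positive control.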

[4] = MultiTox-Fluor Cytotoxicity Assay - LYMP1-001 - Dead Cells (AID 946); conditions: LYMP1-001 lymphoblastoid cells, dead-cell protease fluorescence; at 92.2 µM (top of the series);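 note: cells exposed to compound for 16 h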
How it was run: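 In this qHTS, 15 uM tetraoctylammonium bromide defined 100% and DMSO defined basal activity. Lymphoblastoid cells (LYMP1-001, 2500 per well) received compound for 16 hr at 37 C before a fluorogenic dead-cell substrate readout at 485/520 nm.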

[5] = MultiTox-Fluor Cytotoxicity Assay - LYMP1-001 - Live Cells (AID 947); conditions: LYMP1-001 lymphoblastoid cells, live-cell protease fluorescence viability; series mostly up to 92.2 µM; note: potency is the fitted concentration of half-maximal effect;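 for activity change, negative = cytotoxicity: 0% = DMSO only and full inhibition = tetraoctylammonium bromide control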
From the text: as §1, §2, §3, §4
We have developed a 1536-well cell-based assay for quantitative high throughput screening (qHTS) against a number of cell lines to determine in vitro cytotoxicity of small molecules. This particular assay uses a human lymphoblastoid cell line (LYMP1-001) purchased from Coriell Institute.
as §5
(§6) The MultiTox-Fluor Cytotoxicity Assay (Promega) is a homogeneous method to simultaneously measure the relative number of live and dead cells in culture by detecting changes in cell membrane integrity. There are two fluorogenic peptide substrates in the assay reagent. Viable cells are determined when the cell-permeant substrate (GF-AFC) enters the cell and is cleaved by protease from live cells resulting in liberated fluorophore. […] The dead cells are determined by using fluorogenic cell-impermeant peptide substrate (bis-AAF-R110) which cleaved by dead cell proteases leaking from damaged cell membrane.
(§7) Using the MultiTox-Fluor Cytotoxicity Assay, the relative number of live cells was measured in the lymphoblastoid cell line with complete culture medium following compound treatment for 16 hours. […] AC50 values were determined from concentration-response data modeled with the standard Hill equation. […]

[6] = Cell Viability - LYMP1-002 - Assay at 16 hr (AID 948); conditions: LYMP1-002 lymphoblastoid cell viability; at 92.2 µM (top of the series);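 note: 0% = DMSO alone and full effect = 92 µM tetraoctylammonium bromide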
How it was run: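 LYMP1-002 human lymphoblastoid cells, 2500/well; 5 hr 37 C; cpd 16 hr 37 C; CellTiter-Glo 30 min RT; luminescence (ATP). Concentration-response, Hill-fit AC50. Pos ctrl tetraoctylammonium bromide.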

[7] = MultiTox-Fluor Cytotoxicity Assay - LYMP1-002 - Live Cells (AID 955); conditions: LYMP1-002 lymphoblastoid live-cell protease fluorescence viability; at 46.1 µM (top of the series); note: % is set by controls: 0 for no effect and ±100 for the full control effect
How it was run: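 Read-out is live-cell protease activity (cell-permeant GF-AFC substrate, fluorescence Ex/Em=405/510), where a decrease indicates acute toxicity. Human lymphoblastoid cells were treated 16 hours at 37 C in a concentration series, and AC50 values came from standard Hill modelling.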

[8] = MultiTox-Fluor Cytotoxicity Assay - LYMP1-002 - Dead Cells (AID 960); conditions: LYMP1-002 lymphoblastoid cells, dead-cell protease fluorescence; at 46.1 µM (top of the series);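 note: cells exposed to compound for 16 h at 37 °C; nearly all actives have a fitted effect of over 60% in size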
How it was run: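 LYMP1-002 cells 2500/well; 5 hr 37 C pre-incubation; compound 16 hr 37 C; MultiTox-Fluor reagent 60 min RT; dead-cell fluor Ex/Em 485/520. Norm. to DMSO (0%) vs 15 uM tetraoctylammonium bromide (100%); Hill AC50.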

[9] = MultiTox-Fluor Cytotoxicity Assay - LYMP1-003 - Dead Cells (AID 961); conditions: LYMP1-003 lymphoblastoid cells, dead-cell protease fluorescence; series mostly up to 92.2 µM;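 note: cells exposed to compound for 16 h at 37 °C; nearly all actives have a fitted effect of over 70% in size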; note: potency is the fitted concentration of half-maximal effect
From the text: as §1, §2, §3, §4
(§8) We have developed a 1536-well cell-based assay for quantitative high throughput screening (qHTS) against a number of cell lines to determine in vitro cytotoxicity of small molecules. This particular assay uses a human lymphoblastoid cell line (LYMP1-003) purchased from Coriell Institute.
as §5, §6
as §7, with “dead” for “live”

[10] = MultiTox-Fluor Cytotoxicity Assay - LYMP1-003 - Live Cells (AID 962); conditions: LYMP1-003 lymphoblastoid cells, MultiTox-Fluor live-cell protease fluorescence; series mostly up to 92.2 µM;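 note: cells exposed to compound for 16 hours at 37 °C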; note: potency is the fitted concentration of half-maximal effect
From the text: as §1, §2, §3, §4, §8, §5, §6, §7

| SMILES | caspase-3 activation [1] | activity change, negative = inhibition [2] | activity change, negative = cytotoxic [3] | cytotoxicity (dead cells) [4] | Potency [5] | activity change, negative = cytotoxicity [6] | viability change, negative = cytotoxic [7] | cytotoxicity (dead cells) [8] | Potency [9] | Potency [10] |
| --- | --- | --- | --- | --- | --- | --- | --- | --- | --- | --- |
| O=[N+]([O-])C(Cl)(Cl)Cl | inactive: -2.46% | inactive: -13% | inactive: 7.42% | inactive: -10.9% | inactive | inactive: -3.47% | inactive: 3.91% | inactive: 8.53% | inactive | inactive |
| CN(CCCl)CCCl | inactive: 27.2% | inactive: -10.1% |  |  | active: 31.6 µM |  |  |  | active: 31.6 µM | active: 39.8 µM |
